Results on one compound are retold here after patent US7846903B2, “Type II cubic liquid crystal composition” (National Institute of Advanced Industrial Science and …, priority 2004, dated 2010).

The series can be described thus: Krafft temperature (TK) by DSC of amphiphilic compound/water system. Format: physicochemical. The conditions noted are these: listed as 1-O-(3,7,11,15-tetramethylhexadecyl)-β-D-xylopyranoside. As for the experimental part:
Liquid crystals such as cubic liquid crystals formed by amphiphilic lipids are formed only at the Krafft temperature (TK), as determined depending on types and concentrations of amphiphilic lipids, or higher. Furthermore, liquid crystals generally undergo a phase transition upon changes in the concentration of the amphiphilic lipid or temperature. Accordingly, the maximal temperature (Tmax) at which a given liquid crystal structure can be stably present is also determined depending on lipid type and concentration of amphiphilic lipid. Thus, a liquid crystal structure formed by a given type of amphiphilic lipid is stably formed in the temperature range between TK and Tmax. […] The Krafft temperature of the amphiphilic lipid can be determined by a method known in the art, such as a method involving the preparation of such a phase diagram (e.g., Laughlin, R. G., “The Aqueous Phase Behavior of Surfactants,” 1994, Academic Press London, pp. 106-117). The Krafft temperature of a mixture of two or more amphiphilic lipids can be determined by the same method. […]
The Krafft temperatures of these amphiphilic compounds and mixtures thereof determined by the analyses described below are shown in Table 2-1 and Table 2-2. […]
In general terms: Differential scanning calorimetry records heat flow against a reference as temperature is scanned.

As for `CC(C)CCCC(C)CCCC(C)CCCC(C)CCOC1OC[C@@H](O)C(O)C1O` (stereo partly shown) [formula (13), reference compound], the “TK (Krafft temperature)” value was “about 10 °C”.
